Entries after “also recorded” stand apart in the source; their conditions may differ.
Assays:
[1] = Transmission electron microscopy of self-assembled conjugates; type: physicochemical; conditions: 5.0 mg/mL solution dried on grid, phosphotungstic acid stain
[2] = Water proton relaxation measurements / NMRD profiles; type: physicochemical; conditions: 25.0 mg/mL (high concentration), 298 K
From the text: The paramagnetic relaxivity (r1p) of Gd (III) complexes is given by:1 r1p∝1/T1MH=Kf(τR) where K is a constant related to the strength of the dipolar interaction between the protons and the electronic magnetic moment, and τR is the correlation time associated with the reorientation of the Gd-H magnetic vector. This means that slowly moving high molecular weight systems are endowed with higher relaxivity than rapidly reorienting low molecular weight ones. In the case of self assembling Gd-containing systems, the extent of aggregation may be evaluated through the measure of the water proton longitudinal relaxation rate of its aqueous solution. […] NMRD profiles were acquired below (black circles) and above (white ones) the CAC values determined by ANS titration and ^1HNMR. […] Data were analyzed using the Solomon-Bloembergen-Morgan model, [18], considering one water molecule in the inner coordination sphere (q = 1) and fixing the exchange lifetime (τM) to a reliable value ([…]) on the basis of those previously reported for mono-amido DOTA derivatives[19]–[22]. The quantitative analysis of the NMRD profile of the aggregated form was not satisfactory when the simple inner- outer-sphere model was used, so the Lipari-Szabo approach was used for the description of the rotational dynamics. […]

Substance: Gd-DOTA-L6-F2 [reference compound]
- supramolecular aggregation / morphology in TEM images [1]: do not show any supramolecular aggregate; also recorded: unaggregated form
- aggregation state from NMRD profile and τR [2]: inability of the system to self-aggregate even at high concentration
